PMC4728423, “Natural and synthetic flavonoid modulation of TRPC5 channels” (British Journal of Pharmacology, 2016)

Molecular target: T1, human TRPC5 (Homo sapiens, UniProt Q9UL62)
T1 construct: expressed in transfected cells
T1 sequence (Q9UL62 1-973): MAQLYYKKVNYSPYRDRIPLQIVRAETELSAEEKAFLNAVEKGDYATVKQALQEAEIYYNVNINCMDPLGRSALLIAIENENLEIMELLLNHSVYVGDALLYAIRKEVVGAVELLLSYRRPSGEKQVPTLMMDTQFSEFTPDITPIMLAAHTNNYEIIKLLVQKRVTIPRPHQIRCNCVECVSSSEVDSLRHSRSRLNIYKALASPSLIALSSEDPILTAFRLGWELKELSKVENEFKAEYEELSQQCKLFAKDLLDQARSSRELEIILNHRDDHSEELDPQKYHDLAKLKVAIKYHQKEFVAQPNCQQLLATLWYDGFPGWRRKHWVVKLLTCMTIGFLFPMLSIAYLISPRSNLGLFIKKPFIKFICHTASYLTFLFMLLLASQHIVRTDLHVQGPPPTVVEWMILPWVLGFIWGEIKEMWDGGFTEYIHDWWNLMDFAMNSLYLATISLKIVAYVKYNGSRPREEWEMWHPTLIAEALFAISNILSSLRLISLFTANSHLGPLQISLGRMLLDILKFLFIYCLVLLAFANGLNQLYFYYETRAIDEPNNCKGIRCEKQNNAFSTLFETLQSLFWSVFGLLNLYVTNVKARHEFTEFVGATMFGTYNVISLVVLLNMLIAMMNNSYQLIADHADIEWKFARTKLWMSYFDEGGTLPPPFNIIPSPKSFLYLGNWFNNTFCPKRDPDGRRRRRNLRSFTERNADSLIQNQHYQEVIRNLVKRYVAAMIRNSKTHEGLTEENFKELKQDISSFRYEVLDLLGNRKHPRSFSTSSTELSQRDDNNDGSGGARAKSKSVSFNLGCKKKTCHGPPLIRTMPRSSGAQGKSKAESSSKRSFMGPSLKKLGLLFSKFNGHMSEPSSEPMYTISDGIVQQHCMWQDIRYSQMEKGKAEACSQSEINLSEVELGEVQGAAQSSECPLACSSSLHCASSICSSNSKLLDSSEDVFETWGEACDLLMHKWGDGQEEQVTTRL
Experiment: Outside-out patch recordings from TRPC5 Tet+ cells
Assay type: cell-based
Conditions: 5 μM compound, 100 nM (-)-Englerin A

O=c1c(O)c(-c2ccccc2Br)oc2cc(O)cc(O)c12 [AM12, 3,5,7‐trihydroxy‐2‐(2‐bromophenyl)‐4H‐chromen‐4‐one]
average inhibition of (-)-Englerin A-activated TRPC5 current: ~ 65%
